According to ChEMBL document CHEMBL1127542, “Inhibitors of acyl-CoA:cholesterol O-acyl transferase (ACAT) as hypocholesterolemic agents. 8. Incorporation of amide or amine functionalities into a series of disubstituted ureas and carbamates. Effects on ACAT inhibition in vitro and efficacy in vivo” (J Med Chem, 1994):

Biological target: Sterol O-acyltransferase 1 (Oryctolagus cuniculus)
Assay: In vitro inhibition of rabbit intestinal acyl coenzyme A:cholesterol acyltransferase using [1-14C]oleolyl-CoA

COc1ccc(C(=O)NC(C)(C)CNC(=O)Nc2c(C(C)C)cccc2C(C)C)cc1
IC50: 2.5 µM
